{"source": "patent US11584736B2", "about": "“Heterocyclic P2Y14 receptor antagonists” (The United States of America, as represented by the …, priority 2018, dated 2023)", "target": "T1, hP2Y14R (Homo sapiens, UniProt Q15391)", "T1 construct": "expressed in transfected cells", "T1 sequence (Q15391 1-338)": "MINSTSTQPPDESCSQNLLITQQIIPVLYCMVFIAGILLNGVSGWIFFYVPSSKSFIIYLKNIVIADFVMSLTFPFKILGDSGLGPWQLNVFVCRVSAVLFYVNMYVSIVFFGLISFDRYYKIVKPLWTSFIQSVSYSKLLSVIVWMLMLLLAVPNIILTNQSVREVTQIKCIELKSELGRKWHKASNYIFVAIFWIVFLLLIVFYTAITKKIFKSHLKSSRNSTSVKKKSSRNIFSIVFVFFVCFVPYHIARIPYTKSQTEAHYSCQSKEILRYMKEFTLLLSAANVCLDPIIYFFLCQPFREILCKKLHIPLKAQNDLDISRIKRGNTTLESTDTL", "experiment": "Competitive fluorescent binding assay, flow cytometry of whole hP2Y14R-CHO cells", "details": "Table 1, fluorescent antagonist tracer 20 nM, mean ± SEM (n = 3-5)", "protocol": "Cell Culture: Chinese hamster ovary cells stably expressing the hP2Y14—R (CHO-hP2Y14R) were grown in Dulbecco's Modified Eagle's Medium (DMEM)/Ham's F12 (F12) 1:1 supplemented with 10% FBS, 100 units/mL penicillin, […] streptomycin, 2 mM L-glutamine and 0.500 mg/mL G418 Sulfate (Geneticin). Cells were maintained in a humidified atmosphere and sterile incubation conditions held at 37° C. and 5% CO2 (g).\nCompetitive Assay: Competitive fluorescent assays were performed on a BD FACSCalibur flow cytometer in conjunction with the softwares BD Bioscience PlateManager and CellQuest. All cell culture growth and assays for this procedure were conducted on flat-bottom 96-well plates. CHO-hP2Y14R cells were grown to approximately 80-90% confluency prior to assays. The 96-well plate format enabled four compounds to be analyzed in triplicate per run. All unlabeled ligand compounds are stored as 5 mM stock solutions in dimethyl sulfoxide (DMSO). Serial dilutions of each compound were prepared in complete medium. Cells were initially incubated with unlabeled compounds for 30 min at 37° C. and 5% CO2 (g). […]\nIC50 values were determined from the gathered data with the program GraphPad Prism version 7.0."}
{"smiles": "O=C(O)c1cc(-c2ccc(C3=CCNCC3)cc2)c2ccc(-c3ccc(C(F)(F)F)cc3)cc2c1", "note": "[Compound 3, 4-(4-(1,2,3,6-Tetrahydropyridin-4-yl)phenyl)-7-(4-(trifluoromethyl)phenyl)-2-naphthoic acid]", "values": [{"measurement": "IC50", "value": "0.018 ± 0.002", "unit": "µM"}]}
